This is an account of results in BindingDB's records for US9403767.

The chains behind the UniProt entries cited, without tags or fusion partners. Where a name states a change or a piece, a line headed by the entry shows the natural chain unless it says otherwise.
UniProt P41145: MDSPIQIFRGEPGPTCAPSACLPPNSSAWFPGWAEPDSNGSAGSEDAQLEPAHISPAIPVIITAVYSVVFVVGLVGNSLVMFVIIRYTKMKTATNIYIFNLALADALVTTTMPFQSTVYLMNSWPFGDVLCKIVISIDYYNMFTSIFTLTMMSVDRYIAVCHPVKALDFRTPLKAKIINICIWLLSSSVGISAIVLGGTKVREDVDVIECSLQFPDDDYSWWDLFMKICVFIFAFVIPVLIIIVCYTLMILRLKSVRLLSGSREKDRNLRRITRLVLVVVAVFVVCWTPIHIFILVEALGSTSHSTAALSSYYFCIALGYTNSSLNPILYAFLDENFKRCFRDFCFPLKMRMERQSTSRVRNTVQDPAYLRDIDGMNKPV
UniProt P41146: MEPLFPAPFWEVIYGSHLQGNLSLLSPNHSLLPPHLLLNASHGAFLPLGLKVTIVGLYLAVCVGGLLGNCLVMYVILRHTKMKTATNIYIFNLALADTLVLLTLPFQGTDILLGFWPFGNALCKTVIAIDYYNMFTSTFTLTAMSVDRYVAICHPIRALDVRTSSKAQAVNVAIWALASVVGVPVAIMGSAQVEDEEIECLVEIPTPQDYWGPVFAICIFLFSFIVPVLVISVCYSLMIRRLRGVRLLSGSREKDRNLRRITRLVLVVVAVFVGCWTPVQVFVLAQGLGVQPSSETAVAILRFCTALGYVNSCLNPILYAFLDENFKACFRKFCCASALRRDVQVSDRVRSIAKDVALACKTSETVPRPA
UniProt P35372, whole entry, looked up: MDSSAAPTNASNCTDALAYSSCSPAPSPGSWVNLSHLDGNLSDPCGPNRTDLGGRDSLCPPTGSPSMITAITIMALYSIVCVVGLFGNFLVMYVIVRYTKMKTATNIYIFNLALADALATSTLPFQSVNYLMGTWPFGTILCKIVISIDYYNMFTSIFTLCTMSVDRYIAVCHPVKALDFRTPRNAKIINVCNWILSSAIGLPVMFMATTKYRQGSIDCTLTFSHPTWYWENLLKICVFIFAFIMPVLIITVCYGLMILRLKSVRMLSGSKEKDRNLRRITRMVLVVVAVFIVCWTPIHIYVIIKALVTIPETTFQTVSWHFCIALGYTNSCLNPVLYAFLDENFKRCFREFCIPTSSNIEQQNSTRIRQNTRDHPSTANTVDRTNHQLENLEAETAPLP

What all share (assay): Binding Assay
Assay [1] addresses Kappa-type opioid receptor (Homo sapiens, UniProt P41145).
The target in a further assay is Nociceptin receptor (Homo sapiens, UniProt P41146). The note with it: pH 7.4.
For another assay, the target named is Mu-type opioid receptor (Homo sapiens, UniProt P35372).

A word on the Ki: it is a measure of affinity in units of concentration, obtained from inhibition or displacement. The low end stands for a stronger hold on the target, the high end for a looser hold on the target. In assay [1], `CN(C)C1(Cc2ccccc2)CCC(c2ccccc2)(N(C)C)CC1` (stereo unspecified) gave a Ki of 3.75 µM. Regarding `CNC1(c2[nH]c3ccccc3c2C)CCC(c2cccc(F)c2)(N(C)C)CC1` (stereo unspecified), at Nociceptin receptor, the affinity, expressed as Ki, was 620 nM.

Turning to `CC(NC(=O)/C=C/c1ccccc1)C1CCC(c2cccc(F)c2)(N(C)C)CC1` (stereo unspecified), the Ki on Mu-type opioid receptor worked out at 130 nM; on Nociceptin receptor, 755 nM. Consider `CNC(=O)CN(C)C1(c2ccccc2)CCC(c2ccccc2)(N(C)C)CC1` (stereo unspecified), for which the Ki at Nociceptin receptor came out at 7.4 nM. Take `CN(C)C1(c2ccccc2)CCC(c2ccccc2)(N(C)C(=O)C(c2ccccc2)c2ccccc2)CC1` (stereo unspecified): the inhibition constant (Ki) at Nociceptin receptor stood at 10 nM.
